From ChEMBL document CHEMBL1131597, “Discovery and development of the novel potent orally active thrombin inhibitor N-(9-hydroxy-9-fluorenecarboxy)prolyl trans-4-aminocyclohexylmethyl amide (L-372,460): coapplication of structure-based design and rapid multiple analogue synthesis on solid support” (J Med Chem, 1998)
pIC50, pKi: −log10 of the molar value.

Tests used:
Prothrombin [1] = molecular target: T1, Prothrombin (Homo sapiens, UniProt P00734); assay: Inhibition of thrombin-catalyzed hydrolysis of a standard substrate
Prothrombin [2] = molecular target: T1, Prothrombin; assay: Binding affinity towards thrombin was determined

Structure (SMILES): NC1CCC(CNC(=O)[C@@H]2CCCN2C(=O)[C@@H](N)C2CCCCC2)CC1 (some centres not stated)
- pIC50 (Prothrombin [1]): 8.52
- pKi (Prothrombin [2]): 8.52
